Test results taken from patent US10472355B2, “Cancer treatment utilizing SP-141 to bind with MDM2 and act as an inhibitor of MDM2 expression” (Texas Tech University System, priority 2014, dated 2019).

Protein sequences, listed by entry. Tags and fused reporters are not part of them.
UniProt Q00987, whole entry: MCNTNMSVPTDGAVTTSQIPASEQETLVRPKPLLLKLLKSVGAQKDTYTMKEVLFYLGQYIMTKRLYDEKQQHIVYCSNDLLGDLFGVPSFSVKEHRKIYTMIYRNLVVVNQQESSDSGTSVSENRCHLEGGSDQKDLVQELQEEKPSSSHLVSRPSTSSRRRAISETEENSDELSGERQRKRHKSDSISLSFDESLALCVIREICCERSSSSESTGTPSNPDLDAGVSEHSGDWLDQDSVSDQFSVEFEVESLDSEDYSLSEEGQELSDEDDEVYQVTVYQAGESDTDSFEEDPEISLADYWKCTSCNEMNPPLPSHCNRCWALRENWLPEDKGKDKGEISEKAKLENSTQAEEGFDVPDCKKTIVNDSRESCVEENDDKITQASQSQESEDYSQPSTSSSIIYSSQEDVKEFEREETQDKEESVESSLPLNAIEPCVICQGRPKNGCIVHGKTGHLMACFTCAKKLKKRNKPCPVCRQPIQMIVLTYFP

Target: GST-MDM2 (Homo sapiens, UniProt Q00987)
Assay: Biotin-avidin pull-down assay with biotinylated SP-141
Format: binding
Conditions: competition; reduction proportional to dose
Excerpt: As illustrated in FIGS. 2 and 3.
A western blot analysis is illustrated in FIG. 5. […] Purified GST was used as a negative control. The bound protein was detected using anti-MDM2 and anti-GST antibodies.
The bound protein was detected using anti-MDM2 antibody.

SMILES: COc1ccc(C2=N[C@@H](c3ccc(Cl)cc3)[C@@H](c3ccc(Cl)cc3)N2C(=O)N2CCNC(=O)C2)c(OC(C)C)c1 [nutlin-3, reference compound]
- Effect on Biotin-SP-141-MDM2 binding: markedly reduced
